Values of other authors, collected in US20260015328A1, “ATM KINASE INHIBITORS” (Eberhard Karls Universität Tübingen, priority 2023, published 2026).

Sequences of proteins named here, by UniProt entry; tags and fusion partners are left off.
UniProt Q5S007, whole entry, species assumed: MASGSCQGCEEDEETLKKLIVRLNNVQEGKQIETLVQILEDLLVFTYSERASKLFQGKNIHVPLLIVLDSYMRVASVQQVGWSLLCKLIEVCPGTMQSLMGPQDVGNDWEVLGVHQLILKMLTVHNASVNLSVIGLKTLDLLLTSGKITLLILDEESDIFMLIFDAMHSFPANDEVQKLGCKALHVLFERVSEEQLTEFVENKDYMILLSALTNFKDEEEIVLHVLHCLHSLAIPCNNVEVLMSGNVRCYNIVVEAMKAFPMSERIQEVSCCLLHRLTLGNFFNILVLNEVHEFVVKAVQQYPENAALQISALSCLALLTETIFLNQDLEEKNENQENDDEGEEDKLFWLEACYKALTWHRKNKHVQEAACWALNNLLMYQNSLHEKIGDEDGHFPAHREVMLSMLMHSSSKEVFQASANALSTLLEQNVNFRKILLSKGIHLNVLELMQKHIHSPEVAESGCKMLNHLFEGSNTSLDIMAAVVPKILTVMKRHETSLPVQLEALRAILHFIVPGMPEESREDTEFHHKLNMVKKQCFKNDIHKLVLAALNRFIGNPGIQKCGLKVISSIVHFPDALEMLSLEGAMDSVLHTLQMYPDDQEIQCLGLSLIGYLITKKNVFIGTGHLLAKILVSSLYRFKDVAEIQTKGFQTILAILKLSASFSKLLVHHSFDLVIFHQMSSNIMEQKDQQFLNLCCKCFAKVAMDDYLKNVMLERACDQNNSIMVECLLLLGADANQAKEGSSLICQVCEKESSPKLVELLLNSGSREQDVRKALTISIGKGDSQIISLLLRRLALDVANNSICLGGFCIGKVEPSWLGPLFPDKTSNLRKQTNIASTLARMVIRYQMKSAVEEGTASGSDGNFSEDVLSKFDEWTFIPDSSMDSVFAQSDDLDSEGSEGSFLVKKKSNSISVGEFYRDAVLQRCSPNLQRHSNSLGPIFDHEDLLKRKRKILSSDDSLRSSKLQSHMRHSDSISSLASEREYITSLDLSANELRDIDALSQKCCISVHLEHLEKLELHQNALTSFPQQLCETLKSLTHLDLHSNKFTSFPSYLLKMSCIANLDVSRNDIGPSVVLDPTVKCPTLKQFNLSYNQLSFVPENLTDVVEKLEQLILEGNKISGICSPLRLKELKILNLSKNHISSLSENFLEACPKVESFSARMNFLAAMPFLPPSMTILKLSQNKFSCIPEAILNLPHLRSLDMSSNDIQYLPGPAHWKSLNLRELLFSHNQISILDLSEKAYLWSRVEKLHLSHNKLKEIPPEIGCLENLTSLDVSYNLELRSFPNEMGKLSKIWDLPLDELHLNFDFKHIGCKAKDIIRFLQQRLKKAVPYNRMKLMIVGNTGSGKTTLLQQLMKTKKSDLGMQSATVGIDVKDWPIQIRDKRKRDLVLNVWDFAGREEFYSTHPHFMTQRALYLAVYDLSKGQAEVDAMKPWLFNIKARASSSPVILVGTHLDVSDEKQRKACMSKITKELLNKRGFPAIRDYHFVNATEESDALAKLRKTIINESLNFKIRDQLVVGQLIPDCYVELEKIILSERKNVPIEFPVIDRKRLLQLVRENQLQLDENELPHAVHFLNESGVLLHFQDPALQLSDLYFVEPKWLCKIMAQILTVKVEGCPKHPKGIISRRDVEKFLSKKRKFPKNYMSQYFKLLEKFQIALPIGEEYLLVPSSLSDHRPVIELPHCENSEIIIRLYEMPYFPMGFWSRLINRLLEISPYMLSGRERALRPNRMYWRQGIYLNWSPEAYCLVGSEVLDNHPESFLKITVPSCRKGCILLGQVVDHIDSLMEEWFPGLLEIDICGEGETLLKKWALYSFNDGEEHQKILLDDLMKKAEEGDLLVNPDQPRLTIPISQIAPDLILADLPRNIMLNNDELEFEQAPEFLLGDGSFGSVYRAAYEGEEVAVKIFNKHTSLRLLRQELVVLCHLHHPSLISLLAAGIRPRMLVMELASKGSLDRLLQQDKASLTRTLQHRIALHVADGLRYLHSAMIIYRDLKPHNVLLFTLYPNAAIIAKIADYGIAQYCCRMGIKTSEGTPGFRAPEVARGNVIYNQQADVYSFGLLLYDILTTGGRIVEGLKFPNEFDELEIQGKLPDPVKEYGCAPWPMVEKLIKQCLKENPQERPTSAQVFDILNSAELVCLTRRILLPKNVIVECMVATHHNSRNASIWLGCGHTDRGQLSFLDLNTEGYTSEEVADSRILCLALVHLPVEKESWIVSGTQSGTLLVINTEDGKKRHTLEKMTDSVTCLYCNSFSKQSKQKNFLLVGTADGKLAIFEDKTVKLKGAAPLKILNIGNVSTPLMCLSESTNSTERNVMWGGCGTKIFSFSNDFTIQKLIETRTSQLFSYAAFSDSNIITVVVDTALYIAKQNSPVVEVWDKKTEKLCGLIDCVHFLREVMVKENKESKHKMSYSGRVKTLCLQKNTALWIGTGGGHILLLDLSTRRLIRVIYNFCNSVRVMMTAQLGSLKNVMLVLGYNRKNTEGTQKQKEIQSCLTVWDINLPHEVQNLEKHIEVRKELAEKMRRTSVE

Columns and labels:
[1] = biological target: LRRK2 (Homo sapiens (Human), UniProt Q5S007); conditions: cited from earlier work
[2] = biological target: mTOR (Homo sapiens (Human), UniProt P42345); conditions: cited from earlier work

Structure (SMILES): CN(C)CCCOc1ccc(-c2ccc3ncc4c(c3c2)n(C2CCOCC2)c(=O)n4C)cn1 [AZD0156, 8-{6-[3-(Dimethylamino)propoxy]pyridin-3-yl}-3-methyl-1-(tetrahydro-2H-pyran-4-yl)-1,3-dihydro-2H-imidazo[4,5-c]quinolin-2-one]
- LRRK2 inhibition at 1 μM [1]: ≥ 87%
- mTOR inhibition at 1 μM [2]: ≥ 87%
